Results on one molecule are retold here after ChEMBL document CHEMBL1268987, “Identification of 2-oxo-N-(phenylmethyl)-4-imidazolidinecarboxamide antagonists of the P2X(7) receptor” (Bioorg Med Chem Lett, 2010).

The chains behind the UniProt entries cited, without tags or fusion partners. Where a name states a change or a piece, a line headed by the entry shows the natural chain unless it says otherwise.
UniProt Q99572: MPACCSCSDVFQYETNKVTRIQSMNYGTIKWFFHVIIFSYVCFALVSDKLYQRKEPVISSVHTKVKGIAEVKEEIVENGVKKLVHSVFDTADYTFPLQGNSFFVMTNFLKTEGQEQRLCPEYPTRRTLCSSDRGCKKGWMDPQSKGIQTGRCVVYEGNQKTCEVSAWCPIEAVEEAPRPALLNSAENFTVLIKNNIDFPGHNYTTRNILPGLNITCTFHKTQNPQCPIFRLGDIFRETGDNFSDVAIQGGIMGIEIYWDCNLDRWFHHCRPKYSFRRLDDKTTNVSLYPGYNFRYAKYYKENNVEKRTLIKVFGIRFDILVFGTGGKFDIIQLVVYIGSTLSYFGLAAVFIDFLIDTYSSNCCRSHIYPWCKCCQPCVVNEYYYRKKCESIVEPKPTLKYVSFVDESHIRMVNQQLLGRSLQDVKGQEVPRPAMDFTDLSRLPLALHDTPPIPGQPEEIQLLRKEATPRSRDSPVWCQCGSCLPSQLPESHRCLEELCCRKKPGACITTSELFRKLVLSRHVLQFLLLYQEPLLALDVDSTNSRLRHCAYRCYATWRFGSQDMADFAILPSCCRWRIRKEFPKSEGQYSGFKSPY

The target in this assay is P2X purinoceptor 7 (Homo sapiens, UniProt Q99572). Briefly: Antagonist activity at human recombinant P2X7 receptor expressed in HEK293 cells by ethidium accumulation assay. Type of assay: functional, cell-based. In short, it runs like this:
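Ethidium accumulation read-out: ATP activation of the receptor opens a large pore, and uptake of ethidium bromide dye into the cells is measured by fluorescence. Values are pIC50, reported as the average of n >3.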

The structures appear in SMILES notation.

Broadly, the IC50 is the concentration at which inhibition is half-maximal. As for `CN1C[C@@H](C(=O)NCc2cccc(C(F)(F)F)c2Cl)N(C)C1=O`, the half-inhibitory concentration (IC50) was 0.631 nM.
